# According to patent publication US20240009310A1, “A […] ANTIGEN RECEPTOR CONSTRUCT ENCODING A CHECKPOINT INHIBITORY MOLECULE AND AN IMMUNE STIMULATORY CYTOKINE AND CAR-EXPRESSING CELLS RECOGNIZING CD44v6” (Charité - Universitätsmedizin Berlin, priority 2020, published 2024):
# B1: dntPD1opt: dominant negative truncated form of PD-1, checkpoint inhibitor, expressed from lentiviral vector in Jurkat cells (protein)
# chain: LDSPDRPWNPPTFSPALLVVTEGDNATFTCSFSNTSESFVLNWYRMSPSNQTDKLAAFPEDRSQPGQDCRFRVTQLPNGRDFHMSVVRARRNDSGTYLCGAISLAPKAQIKESLRAELRVTERRAEVPTAHPSPSPRPAGQFQTLVVGVVGGLLGSLVLLVWVLAVICSRAARG
# Target: T1, checkpoint protein PD-1 (Homo sapiens, UniProt Q15116)
# T1 construct: Jurkat cells expressing GFP under the control of the NFAT promoter; endogenous in cells; host or cells: Jurkat NFAT-GFP reporter cells, co-cultured with U251-PD-L1 cells
# Experiment: NFAT promoter GFP reporter Jurkat cells exposed to U251-PD-L1 and PHA (checkpoint inhibition)
# Type: cell-based
# Details: U251-PD-L1, increasing PHA, flow cytometry, compared to control vector
# Source text: FIG. 2: Checkpoint inhibition by a dominant negative PD1 (dnPD1opt) leads to an improvement in NFAT promoter activity: Jurkat cells expressing GFP under the control of the NFAT promoter were transduced with a dentPD1opt expressing lentiviral vector or a control vector. The cells were then exposed 1 day earlier to a cell line expressing high levels of PD-L1 (U251-PD-L1) in duplicate wells of a 96-well plate with increasing levels of a TCR-linked proliferative signal (phytohemagglutinin: PHA). The number of GFP expressing cells was determined by flow cytometry.
# The example relates to experiments that show successful inhibition of the checkpoint protein PD-1 through the dominant negative truncated form of PD-1, dntPD1opt. Jurkat cells expressing GFP under the control of the NFAT promoter (FIG. 2). The Jurkat cells were transduced with a control lentiviral vector or the checkpoint inhibitor (dntPD1opt) encoding lentiviral vector. One day before, these cells were exposed in duplicate in a 96 well plate to a cell line expressing high concentrations of PD-L1 (U251-PD-L1) and an increasing concentration of a TCR mediated T cell stimulus, phytohaemagglutinin (PHA). […] Example 3: The activity IL-15 superagonists (15R15) compared to IL-2 or IL-15
molecule,measurement,value
B1,number of GFP expressing cells (NFAT promoter),higher for dntPD1opt expressing Jurkat cells compared to the negative control
